Reference: US10821110B2, “Composite preparation, containing novel 3-(4--(benzyloxy)phenyl)hex-4-inoic acid derivative and another active ingredient, for preventing or treating metabolic diseases” (HYUNDAI PHARM CO., LTD., priority 2014, dated 2020)

Test system: male diet-induced obesity (DIO) mice
Assay: OGTT by co-administration with DPPIV inhibitor (sitagliptin), mouse model
Type: in vivo
Settings: oral, sitagliptin 10 mg/kg alone

Structure (SMILES): N[C@@H](CC(=O)N1CCn2c(nnc2C(F)(F)F)C1)Cc1cc(F)c(F)cc1F [Sitagliptin, sitagliptin, reference compound]
- Reduction (%) of blood glucose AUC: 17.7%
